Test results as given in ChEMBL document CHEMBL3774372, “Design, physico-chemical properties and biological evaluation of some new N-[(phenoxy)alkyl]- and N-{2-[2-(phenoxy)ethoxy]ethyl}aminoalkanols as anticonvulsant agents” (Bioorg Med Chem, 2016).

Amino acid sequences for entries named in this document (tags omitted). A change or cut given only in a name is not applied to a line headed by its entry.
UniProt P34975: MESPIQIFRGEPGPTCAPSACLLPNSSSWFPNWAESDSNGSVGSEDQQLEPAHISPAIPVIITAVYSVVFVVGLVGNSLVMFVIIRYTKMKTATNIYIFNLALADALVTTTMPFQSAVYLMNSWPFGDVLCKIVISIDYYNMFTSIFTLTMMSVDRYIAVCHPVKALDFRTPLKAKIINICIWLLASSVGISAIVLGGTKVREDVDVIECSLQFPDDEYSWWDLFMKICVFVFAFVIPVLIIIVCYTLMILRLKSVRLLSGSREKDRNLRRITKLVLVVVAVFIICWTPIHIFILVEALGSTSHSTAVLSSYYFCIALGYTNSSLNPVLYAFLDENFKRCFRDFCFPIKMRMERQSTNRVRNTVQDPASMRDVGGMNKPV

Biological target: Kappa-type opioid receptor (Rattus norvegicus, UniProt P34975)
Experiment: Displacement of [3H]U 69593 from rat recombinant kappa-type opioid receptor expressed in CHO cells

SMILES: CN(C(=O)Cc1ccc(Cl)c(Cl)c1)C1CCCCC1N1CCCC1 (stereo unspecified)
- IC50: 0.64 nM
